Target: PI3Kδ (Homo sapiens, UniProt O00329)
Details: biochemical

Protein sequences, listed by entry. Tags and fused reporters are not part of them. Lines headed by an entry give the natural chain unless they say otherwise; changes in a name come on top.
UniProt O00329: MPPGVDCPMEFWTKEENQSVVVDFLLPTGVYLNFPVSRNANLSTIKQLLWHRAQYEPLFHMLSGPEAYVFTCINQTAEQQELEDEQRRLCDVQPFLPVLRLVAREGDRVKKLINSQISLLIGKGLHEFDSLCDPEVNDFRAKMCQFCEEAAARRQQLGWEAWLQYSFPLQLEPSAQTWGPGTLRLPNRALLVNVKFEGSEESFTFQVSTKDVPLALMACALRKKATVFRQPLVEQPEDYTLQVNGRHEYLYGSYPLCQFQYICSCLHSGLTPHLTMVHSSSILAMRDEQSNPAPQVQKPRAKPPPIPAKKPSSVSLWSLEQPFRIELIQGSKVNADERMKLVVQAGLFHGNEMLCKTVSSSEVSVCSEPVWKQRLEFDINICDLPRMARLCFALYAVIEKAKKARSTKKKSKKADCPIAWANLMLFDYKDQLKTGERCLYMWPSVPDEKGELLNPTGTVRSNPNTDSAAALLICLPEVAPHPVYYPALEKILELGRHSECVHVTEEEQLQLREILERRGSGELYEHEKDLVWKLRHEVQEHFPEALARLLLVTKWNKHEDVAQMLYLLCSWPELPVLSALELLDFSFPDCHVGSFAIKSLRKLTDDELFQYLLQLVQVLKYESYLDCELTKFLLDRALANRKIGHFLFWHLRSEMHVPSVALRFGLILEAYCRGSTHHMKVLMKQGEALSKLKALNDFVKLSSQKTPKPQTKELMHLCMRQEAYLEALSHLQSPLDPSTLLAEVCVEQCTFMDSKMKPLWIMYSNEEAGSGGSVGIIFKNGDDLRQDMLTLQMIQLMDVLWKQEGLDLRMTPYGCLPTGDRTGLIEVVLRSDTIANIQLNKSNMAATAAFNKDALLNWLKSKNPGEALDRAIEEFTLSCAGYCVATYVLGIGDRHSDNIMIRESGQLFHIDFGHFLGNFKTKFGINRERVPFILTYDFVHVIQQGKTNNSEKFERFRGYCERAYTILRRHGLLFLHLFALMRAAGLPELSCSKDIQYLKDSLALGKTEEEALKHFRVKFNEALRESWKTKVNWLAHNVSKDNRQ

`Cc1nc(NC(=O)CN)sc1-c1cnc(Cl)c(NS(=O)(=O)c2ccc(C(C)(C)C)cc2)c1` [PI3KD/V-IN-01, 2-amino-N-(5-(5-(4-tert-butylphenylsulfonamido)-6-chloropyridin-3-yl)-4-methylthiazol-2-yl)acetamide] was tested, and the “selectivity over other PI3K isoforms” value was 10-1500 fold.
